Experiment: Stability in acidic environment at 25° C. (half-life of initial microbiological activity)
Format: physicochemical
Conditions: aqueous solution, pH 4
Description: The half life times of the initial activity of erythromycin A and of the macrolide antibiotics of the present invention in solution at several pH values are reported in the following table 1.
Stability in acidic environnment at 25° C. of the novel
Note: t 1/2 represents the time for reducing to one half the initial powe
of the antibiotic determined by microbiological method through diffusion
on a plate using the test stock Microccocus luteus (Sarcina lutea) ATCC

## CC[C@H]1OC(=O)[C@H](C)[C@@H](O[C@H]2C[C@@](C)(OC)[C@@H](O)[C@H](C)O2)[C@H](C)[C@@H](O[C@@H]2O[C@H](C)C[C@H](N(C)C)[C@H]2O)[C@](C)(O)C[C@@H](C)C(=O)[C@H](C)[C@@H](O)[C@]1(C)O [Erythromycin A, reference compound]
  half-life: 2 h

— patent US4439426A, “Semisynthetic macrolidic antibiotics, intermediate compounds for their preparation and related pharmaceutical compositions containing them” (priority 1981, dated 1984)
